Legend:
Assay type in all cases: cell-based, human
TYRP1 = test: Melanogenic enzyme protein expression, western blot; conditions: HEMs, pre-treated 60 minutes, 4.0 mM L-tyrosine 48 hours
DCT = test: as above; conditions: HEMs, pre-treated 60 minutes, 4.0 mM L-tyrosine 48 hours
[1] = test system: microphthalmia-associated transcription factor (MITF); test: MITF mRNA expression in HEMs, qPCR; conditions: pre-treated 60 minutes, 4.0 mM L-tyrosine 48 hours, up to 10 μM
[2] = test system: microphthalmia-associated transcription factor (MITF); test: MITF protein expression in HEMs; conditions: pre-treated 60 minutes, 4.0 mM L-tyrosine 48 hours, up to 10 μM
HEMs = test: Melanin synthesis in L-tyrosine-stimulated HEMs; conditions: 3 μM and 10 μM for 60 minutes, then 4.0 mM L-tyrosine 48 hours
[3] = test system: DOPA chrome tautomerase (DCT); test: mRNA expression of melanogenic enzymes, qRT-PCR; conditions: HEMs, pre-treated 60 minutes, 4.0 mM L-tyrosine 48 hours
[4] = test system: tyrosinase-related protein 1 (TYRP1); test: mRNA expression of melanogenic enzymes, qRT-PCR; conditions: HEMs, pre-treated 60 minutes, 4.0 mM L-tyrosine 48 hours
tyrosinase (TYR) = test: mRNA expression of melanogenic enzymes, qRT-PCR; conditions: HEMs, pre-treated 60 minutes, 4.0 mM L-tyrosine 48 hours

Row | Compound | TYRP1 protein expression level, effect on the increase by L-tyrosine (TYRP1) | DCT protein expression level, effect on the increase by L-tyrosine (DCT) | MITF mRNA expression level, effect on the increase by L-tyrosine [1] | MITF protein expression level, effect on the increase by L-tyrosine [2] | extracellular melanin level, effect on the increase by L-tyrosine (HEMs) | intracellular melanin level, effect on the increase by L-tyrosine (HEMs) | DCT mRNA expression level, effect on the increase by L-tyrosine [3] | TYRP1 mRNA expression level, effect on the increase by L-tyrosine [4] | TYR mRNA expression level, effect on the increase by L-tyrosine (tyrosinase (TYR))
1 | O=C(O)CO [GA, glycolic acid] | no effect | no effect | no effect | no effect |  |  |  |  | 
2 | O=C(CO)Oc1ccc(/C=C/c2cc(OC(=O)CO)cc(OC(=O)CO)c2)cc1 [resveratryl triglycolate] |  |  |  |  | reduced | reduced |  |  | 
3 | OC[C@H]1O[C@@H](Oc2ccc(O)cc2)[C@H](O)[C@@H](O)[C@@H]1O [arbutin] | no effect | no effect | no effect | no effect |  |  |  |  | 
4 | CC(=O)Oc1ccc(C=Cc2cc(OC(C)=O)cc(OC(C)=O)c2)cc1 [RTA, resveratryl triacetate] | reduced | reduced | reduced | reduced | reduced | reduced | reduced | reduced | reduced
5 | Oc1ccc(C=Cc2cc(O)cc(O)c2)cc1 [resveratrol] | reduced | reduced | reduced | reduced | reduced | reduced | reduced | reduced | reduced

Source: US10662140B2, “Method for skin-whitening using composition containing resveratryl triglycolate” (KYUNGPOOK NATIONAL UNIVERSITY INDUSTRY-ACADEMIC COOPERATION …, priority 2016, dated 2020)
